Data taken from ChEMBL document CHEMBL1133572, “Protease inhibitors: current status and future prospects” (J Med Chem, 2000).
Blank lines part the entries; values can stand above or below the molecule they belong to.

Amino acid sequences for entries named in this document (tags omitted). A change or cut given only in a name is not applied to a line headed by its entry.
UniProt P08254: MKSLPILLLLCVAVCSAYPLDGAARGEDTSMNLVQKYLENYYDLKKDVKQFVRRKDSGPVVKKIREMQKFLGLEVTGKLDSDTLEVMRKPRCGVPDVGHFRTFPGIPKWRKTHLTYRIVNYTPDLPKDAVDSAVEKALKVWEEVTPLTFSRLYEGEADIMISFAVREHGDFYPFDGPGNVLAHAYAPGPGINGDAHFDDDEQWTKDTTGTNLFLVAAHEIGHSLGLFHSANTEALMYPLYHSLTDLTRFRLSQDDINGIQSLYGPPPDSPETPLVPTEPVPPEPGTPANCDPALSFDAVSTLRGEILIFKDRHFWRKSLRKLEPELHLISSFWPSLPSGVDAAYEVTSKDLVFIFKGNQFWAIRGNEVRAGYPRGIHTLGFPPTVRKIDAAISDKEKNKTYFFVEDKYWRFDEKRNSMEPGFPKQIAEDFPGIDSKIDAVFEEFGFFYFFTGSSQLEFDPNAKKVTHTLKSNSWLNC

How the values were obtained:
Canis familiaris = organism: Canis familiaris; test: Half life in dogs.; details: dog, in vivo
[1] = molecular target: T1, Calpain-1 catalytic subunit (Homo sapiens) (UniProt P07384); test: Inhibition activity of calpain
T1 sequence (whole entry): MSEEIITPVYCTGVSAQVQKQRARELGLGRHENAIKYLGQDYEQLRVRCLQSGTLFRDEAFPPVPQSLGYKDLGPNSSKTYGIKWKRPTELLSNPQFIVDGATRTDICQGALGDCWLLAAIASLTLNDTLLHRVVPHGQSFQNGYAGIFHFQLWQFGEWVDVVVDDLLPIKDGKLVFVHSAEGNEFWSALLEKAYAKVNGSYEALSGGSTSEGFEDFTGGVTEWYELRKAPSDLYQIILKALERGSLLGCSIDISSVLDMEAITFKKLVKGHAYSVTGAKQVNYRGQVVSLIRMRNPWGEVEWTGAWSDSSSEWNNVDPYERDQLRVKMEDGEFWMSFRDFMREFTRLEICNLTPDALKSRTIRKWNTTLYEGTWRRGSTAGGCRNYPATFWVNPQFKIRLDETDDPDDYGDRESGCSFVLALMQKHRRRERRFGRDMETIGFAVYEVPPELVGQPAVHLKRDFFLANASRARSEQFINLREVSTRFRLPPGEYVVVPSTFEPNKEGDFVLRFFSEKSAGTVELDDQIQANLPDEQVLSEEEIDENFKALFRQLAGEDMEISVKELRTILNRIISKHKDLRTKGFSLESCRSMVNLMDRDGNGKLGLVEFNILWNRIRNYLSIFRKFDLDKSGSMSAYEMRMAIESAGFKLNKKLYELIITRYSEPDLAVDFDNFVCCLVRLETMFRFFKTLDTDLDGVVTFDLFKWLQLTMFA

Neutrophil elastase = molecular target: T2, Neutrophil elastase (Homo sapiens, UniProt P08246)
T2 sequence (P08246 whole entry): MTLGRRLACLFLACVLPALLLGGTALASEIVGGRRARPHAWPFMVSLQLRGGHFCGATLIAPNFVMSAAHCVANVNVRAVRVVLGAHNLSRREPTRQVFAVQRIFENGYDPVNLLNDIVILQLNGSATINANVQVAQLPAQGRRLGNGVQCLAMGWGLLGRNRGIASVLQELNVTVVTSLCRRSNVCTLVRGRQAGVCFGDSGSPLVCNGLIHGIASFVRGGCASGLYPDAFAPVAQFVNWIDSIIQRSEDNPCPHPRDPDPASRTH

Stromelysin-1 = Stromelysin-1 (Homo sapiens, UniProt P08254)
Collagenase 3 = Collagenase 3 (Homo sapiens, UniProt P45452)
Caspase-1 (Homo sapiens) = molecular target: T3, Caspase-1 (Homo sapiens) (UniProt P29466); test: Inhibition of IL-1 beta converting enzyme
T3 sequence (whole entry): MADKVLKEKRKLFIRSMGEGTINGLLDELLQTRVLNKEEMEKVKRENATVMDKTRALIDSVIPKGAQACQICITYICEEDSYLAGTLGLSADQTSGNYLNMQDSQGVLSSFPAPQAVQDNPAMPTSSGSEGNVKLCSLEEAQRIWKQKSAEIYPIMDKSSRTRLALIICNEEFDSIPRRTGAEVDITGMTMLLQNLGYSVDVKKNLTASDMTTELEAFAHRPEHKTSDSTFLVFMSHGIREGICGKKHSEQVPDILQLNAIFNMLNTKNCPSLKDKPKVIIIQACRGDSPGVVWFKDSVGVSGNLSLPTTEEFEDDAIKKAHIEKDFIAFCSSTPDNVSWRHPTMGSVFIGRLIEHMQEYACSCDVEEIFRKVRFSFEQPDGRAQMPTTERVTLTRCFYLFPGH

half-life (Canis familiaris): 48 min
Compound: CC1=CCN(C(=O)[C@H](Cc2ccc(C(=N)N)cc2)NS(=O)(=O)c2ccc3c(c2)CN(C)CC3)[C@@H](C(=O)O)C1

K obs / 1 [1]: 276000 M⁻¹ s⁻¹
Compound: CC(C)C[C@H](NC(=O)N1CCc2ccccc2C1)C(=O)N[C@@H](Cc1ccccc1)C(=O)CF

Compound: CC(C)(C)C(=O)Oc1ccc(S(=O)(=O)Nc2ccccc2C(=O)NCC(=O)O)cc1
Ki (Neutrophil elastase): 200 nM

Ki (Stromelysin-1): 18 nM
Compound: COc1ccc(S(=O)(=O)N2CC(C)(C)CN(S(=O)(=O)c3ccc(OC)cc3)C2C(=O)NO)cc1

Ki (Collagenase 3): 3 nM
Compound: CN1C(=O)N(C[C@H](C(=O)NO)[C@@H](CC2CCCC2)C(=O)N2CCCCC2)C(=O)C1(C)C

K obs / 1 (Caspase-1 (Homo sapiens)): 272000 M⁻¹ s⁻¹
Compound: O=C(O)C[C@H](NC(=O)Cn1c(-c2cccs2)ncc(NC(=O)OCc2ccccc2)c1=O)C(=O)COC(=O)c1c(Cl)cccc1Cl
